Tested on: non-obese diabetic mice
Test: Effect on insulin resistance: glucose infusion rate during insulin activity
Details: test compound given before insulin (phenserine approximately 30 minutes prior); glucose infused to maintain steady glucose level; relative to control animals

## CN1CC[C@@]2(C)c3cc(OC(=O)Nc4ccccc4)ccc3N(C)C12 (stereo partly shown)
  rate of glucose infusion: increase the rate of glucose infusion

— patent US20070129350A1, “Methods for treatment of diabetes” (published 2007)
